Measurements reported in patent publication US20240294534A1, “IMIDAZOTRIAZINE DERIVATIVES AS IL-17 MODULATORS” (UCB BIOPHARMA SRL, priority 2021, published 2024).

Amino acid sequences for entries named in this document (tags omitted). Residues count along the entry.
UniProt Q16552, 24-155 limits assumed: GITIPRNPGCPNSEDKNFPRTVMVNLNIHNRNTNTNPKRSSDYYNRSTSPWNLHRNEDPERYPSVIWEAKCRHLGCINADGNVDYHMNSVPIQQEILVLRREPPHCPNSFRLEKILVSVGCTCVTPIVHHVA

Biological target: IL-17A (Homo sapiens, UniProt Q16552)
Test: Inhibition of IL-17A induced IL-6 release from dermal fibroblast cell line (HDF cell line assay)
Details: human dermal fibroblasts stimulated with IL-17A (50 pM) + TNF-α (25 pM); IL-6 measured by HTRF; pIC50 = -log10[IC50], IC50 molar
Source text: Inhibition of IL-17A Induced IL-6 Release from Dermal Fibroblast Cell Line
The purpose of this assay is to test the neutralising ability to IL-17 proteins, in a human primary cell system. Stimulation of normal human dermal fibroblasts (HDF) with IL-17 alone produces only a very weak signal but in combination with certain other cytokines, such as TNFα, a synergistic effect can be seen in the production of inflammatory cytokines, i.e. IL-6.
HDFs were stimulated with IL-17A (50 pM) in combination with TNF-α (25 pM). The resultant IL-6 response was then measured using a homogenous time-resolved FRET kit from Cisbio. The kit utilises two monoclonal antibodies, one labelled with Eu-Cryptate (Donor) and the second with d2 or XL665 (Acceptor). The intensity of the signal is proportional to the concentration of IL-6 present in the sample (Ratio is calculated by 665/620×104).
The ability of a compound to inhibit IL-17 induced IL-6 release from human dermal fibroblasts is measured in this assay.
HDF cells (Sigma #106-05n) were cultured in complete media (DMEM+10% FCS+2 mM L-glutamine) and maintained in a tissue culture flask using standard techniques. […] The cells were re-suspended in complete media (5 mL) counted and adjusted to a concentration of 3.125×10^4 cells/mL before being added to the 384 well assay plate (Corning #3701) at 40 μL per well. […]

Compound | pIC50
O=C(N[C@H](c1cn2ncc([C@H]3CS(=O)(=O)CCN3C(=O)C34CC(F)(C3)C4)nc2n1)[C@H]1CC[C@H](C(F)(F)F)CC1)C1(F)CC1 | 6.9
O=C(N[C@H](c1cn2ncc([C@@H]3CS(=O)(=O)CCN3C(=O)C34CC(F)(C3)C4)nc2n1)[C@H]1CC[C@H](C(F)(F)F)CC1)C1(F)CC1 | 7.0
